# Results from PubChem BioAssay AID686970 (National Center for Advancing Translational Sciences (NCATS), 2013).
# The entries are a selection whose mix differs from that of the whole data set. Results filed as inconclusive are left out. Calls of active or inactive are those of the source. The call rests on the fitted dose curve; in most records, active means well fitted cell-killing curve with a large enough effect; inconclusive means small, poorly fitted or top-dose-only effect, or effect the other way; inactive means flat fitted curve, though single readings scatter.
# Assay: qHTS for induction of synthetic lethality in tumor cells producing 2HG: qHTS for the HT-1080-NT fibrosarcoma cell line;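 further: NT is the 2HG producing partner of a matched IDH1 knockdown line; 0% = DMSO-treated cells and -100% = media-only wells without cells; nearly all actives have a fitted effect of over 55% in size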
# Settings: HT-1080-NT fibrosarcoma viability, CellTiter-Glo ATP luminescence, 48 h; series mostly up to 46.1 µM; activity, negative = less viability: at the top concentration
row,Compound,"activity, negative = less viability"
1,COC(=O)C1(C)COP(=O)(Nc2ccccc2)OC1 (configuration not stated),inactive: 13.3%
2,O=C(O)CNc1ccc([As](=O)(O)O)cc1,inactive: 3.34%
3,CC(C)(C)C(=O)NC(Sc1ccncn1)C(Cl)(Cl)Cl (configuration not stated),inactive: -1.4%
4,O=[N+]([O-])c1ncn(CCn2ncnc2[N+](=O)[O-])n1,inactive: -3.97%
5,O=C(Nc1cc([As](=O)(O)O)ccc1O)c1ccccc1,inactive: 2.18%
6,O=P1(N(CCCl)CCCl)OCCCS1 (configuration not stated),inactive: -0.398%
7,CC(C)=N/N=C(\N)N[N+](=O)[O-],inactive: 17.8%
8,CC(C)c1nc(Nc2ccccc2)n(P(=O)(N(C)C)N(C)C)n1,inactive: 1.12%
9,CN(C)C(=O)OCCc1n(C)cc[n+]1C,inactive: 3.85%
10,c1cc(-c2nn[nH]n2)ccc1-c1nn[nH]n1,inactive: -1.89%
11,CC1CCN(C(=O)Oc2c(Cl)cc(Cl)c3cccnc23)CC1,inactive: -4.82%
12,Nc1ccc([As](=O)(O)c2ccc(N)cc2)cc1,inactive: 17.5%
13,CCN(/C(=N/P(=O)(N1CCOCC1)N1CCOCC1)N1CCOCC1)c1ccc(OC)cc1,inactive: 10.6%
14,O=[N+]([O-])c1cccc2n[nH]nc12,inactive: 1.6%
15,CC(=O)N1C2C3N(C(C)=O)C1C1N(C(C)=O)C(C(N1C(C)=O)N3C(C)=O)N2C(C)=O,inactive: 10.3%
16,Cc1ccc(NP(=O)(Oc2ccccc2)Oc2ccccc2)nc1,inactive: -1.17%
17,CCc1nc2c(n1)c1c(non1O)c1c2no[n+]1[O-],inactive: -15.2%
18,COc1ccc(C2=NCC(CBr)S2)cc1 (configuration not stated),inactive: -15.1%
19,CC(C)CC(=O)NC(Sc1ccc(Cl)cc1)C(Cl)(Cl)Cl (configuration not stated),inactive: -19.3%

row,Compound,"activity, negative = less viability"
1,Nc1cc(N)c2nonc2c1[N+](=O)[O-],inactive: -0.384%
2,Oc1ccccc1CNc1ccccn1,inactive: 2.02%
3,O=C(NC(Sc1ccncn1)C(Cl)(Cl)Cl)c1ccccc1 (configuration not stated),inactive: -1.96%
4,COc1ccccc1OP(=O)(Nc1ccc(C)cn1)Oc1ccccc1OC,inactive: -3.76%
5,Cc1ccc(OP(=O)(Nc2nccs2)Oc2ccc(C)cc2)cc1,inactive: 10.1%
6,Clc1ccc(Cl)c(NC2=NCC(CBr)S2)c1 (configuration not stated),inactive: -6.12%
7,CN1CCCC(OC(=O)C(c2ccccc2)c2ccccc2)C1 (configuration not stated),inactive: -1.62%
8,NC(=O)c1cc([N+](=O)[O-])cc([N+](=O)[O-])c1N,inactive: -4.64%
9,Cc1ccc(N/C(=N/P(=O)(N2CCOCC2)N2CCOCC2)N2CCOCC2)cc1,inactive: -4.73%
10,CCN(N=Nc1nonc1N)c1nonc1N,inactive: 14.2%
11,Nc1cccc2ccc([As](=O)(O)O)cc12,inactive: 2.21%
12,CCOP(=O)(Nc1ccccc1)OCC,inactive: 13.3%
13,Cc1cc(SC(NC(=O)c2ccc(F)cc2)C(Cl)(Cl)Cl)ncn1 (configuration not stated),inactive: 14%
14,Cc1ccc(NP(=O)(Oc2ccccc2F)Oc2ccccc2F)nc1,inactive: 3.29%
15,O=C(O)c1ccccc1[As](=O)(O)O,inactive: -6.03%
16,CC(=O)Nc1ccc([As](=O)(O)O)cc1,inactive: 23%
17,CCCC1OP(N)(=O)OCC1CC (configuration not stated),inactive: -1.28%
18,CN(C)P(=O)(N(C)C)n1c(Nc2ccccc2)nnc1-c1ccccc1,inactive: -9.17%
